Biological target: human muscarinic receptors Hm3 (Homo sapiens (Human), UniProt P20309)
Conditions: read-out: BINDING TO RECEPTOR M3 (IC50 nM)

CC(C)[N+]1(C)[C@@H]2CC[C@H]1C[C@@H](OC(=O)C(CO)c1ccccc1)C2 (stereo partly shown) [IPRATROPIUM, reference compound]
IC50: 3 nM

Reference: US9333195B2 (priority 1999, dated 2016)
